Reference: BindingDB's records for 40068406

Chains of the proteins cited; added tags and fusions are not shown.
UniProt P41145, whole entry: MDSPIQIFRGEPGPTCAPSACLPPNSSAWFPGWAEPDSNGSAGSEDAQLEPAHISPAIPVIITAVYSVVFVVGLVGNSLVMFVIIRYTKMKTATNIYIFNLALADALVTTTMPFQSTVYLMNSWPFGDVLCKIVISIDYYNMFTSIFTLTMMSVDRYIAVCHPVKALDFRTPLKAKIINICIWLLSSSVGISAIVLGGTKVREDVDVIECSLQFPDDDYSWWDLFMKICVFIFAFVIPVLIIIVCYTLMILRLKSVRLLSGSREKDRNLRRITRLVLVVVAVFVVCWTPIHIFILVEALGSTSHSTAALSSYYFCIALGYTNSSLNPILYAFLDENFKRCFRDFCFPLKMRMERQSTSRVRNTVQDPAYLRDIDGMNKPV

Molecular target: Kappa-type opioid receptor (Homo sapiens, UniProt P41145)
Experiment: Binding affinity to KOR (unknown origin) assessed as inhibition constant

COc1ccc2c3c1O[C@H]1[C@@]4(OC)C=C[C@@]5(C[C@@H]4C(=O)c4ccc(NC(=O)c6ccccc6)cc4)[C@@H](C2)N(CC2CC2)CC[C@]315
Ki: > 10 µM
